From patent publication EP4653435A1, “PRMT5-MTA INHIBITOR” (Suzhou Puhe Biopharma Co., Ltd., priority 2023, dated 2024)

Experiments:
[1] = Membrane permeability: Caco-2 assay; type: in vitro ADME; conditions: human; Caco-2, Efflux Ratio = Papp(B-A)/Papp(A-B)
Procedure: The membrane permeability of the molecules of the invention was evaluated. […] Efflux Ratio = Papp(B−A) /Papp(A−B) [formula]

[2] = tested on: HCT116-MTAPdel; assay: 2D antiproliferative assay (CTG cell viability), MTAP-deficient cells; type: cell-based; conditions: ratio IC50 wild type / MTAPdel, antiproliferation
Procedure: HCT116 wild-type and MTAP-deficient cells were cultured in McCoy's 5A medium containing 10% FBS and 1% penicillin-streptomycin, and cultured in a 37°C, 5% CO2 constant temperature incubator. 40 µL of cell suspension was introduced into each well of a 384-well microplate. 40 nL of different concentrations of test compounds were added to each well using an Echo, before culturing in a 37°C, 5% CO2 constant temperature incubator for 7-10 days. 40 µL of CTG solution (Promega, Cat No. G7573) was added to each well and incubated in a 37°C, 5% CO2 constant temperature incubator for 30 minutes in the dark.

[3] = tested on: SDMA/HCT116-MTAPdel; assay: In-cell arginine symmetric dimethylation inhibition (In-cell western, ICW), MTAP-deficient cells; type: cell-based; conditions: ratio SDMA IC50 wt / MTAPdel
Procedure: 60 nL of different concentrations of compounds were added to each well using an Echo, and incubated at 37°C, 5% CO2 for 96 hours.
Next, 50 µL of 4% paraformaldehyde solution was added to each well and incubated at room temperature for 20 minutes to fix the cells. The solution in the wells was removed, and each well was rinsed four times with PBS solution containing 0.1% Tween 20 (PBST). To each well was then added 30 µL of ice-cold methanol. After standing at -20°C for 10 minutes, the methanol was removed and the wells washed four times with PBST. 30 µL of Odyssey blocking solution containing 0.5% Tween 20 was added to each well and shaken for 2 hours at room temperature. The blocking solution was removed and 30 µL of primary antibody (Symmetric Di-Methyl Arginine Motif [sdma-RG] MultiMab™ Rabbit mAb mix) diluted at 1:500 in Odyssey blocking solution containing 0.5% Tween 20 was added to each well. The plates were incubated overnight at 4°C, before removing the primary antibody and rinsing each well four times with PBST, 5 minutes per rinse. […]
The sdme-RG and DRAQ5 signals were scanned at 800 nm and 700 nm respectively on a Li-Cor Odyssey instrument and the signal values recorded. The sdme-RG/DRAQ5 ratio was used to calculate the percentage inhibition of arginine symmetric dimethylation (SDMA), and the IC50 value calculated using GraphPad Prism software.

Row | Structure (SMILES) | efflux ratio [1] | HCT116WT IMTAPdel selectivity [2] | Selectivity wt/MTAPdel [3]
1 | C[C@@H]1CC[C@@H](c2ccc3scnc3c2)N(C(=O)C(=O)Nc2cnc(N)c3c2cnn3C)C1 (racemic) [Compound P3] | 13 | 64 | 
2 | C[C@@H]1CC[C@@H](c2ccc3scnc3c2)N(C(=O)C(=O)Nc2cnc(N)c3c2cnn3C)C1 [Compound P3a] |  | 15 | 
3 | C[C@H]1CC[C@H](c2ccc3scnc3c2)N(C(=O)C(=O)Nc2cnc(N)c3c2cnn3C)C1 [Compound P3b] |  | 138 | 963
